According to PubChem BioAssay AID1745845 (National Center for Advancing Translational Sciences (NCATS), 2022):
This is a selection; strong and weak results do not stand in their true shares. Records with an inconclusive call do not appear. Activity calls are given as the source filed them. Calls come from the whole dose curve; as a rule, active = well fitted inhibition curve with a large enough effect; inconclusive = small, poorly fitted or top-dose-only effect; inactive = no such curve, though single readings can be large or run the other way.

assay: Primary qHTS for Inhibitors of ATXN expression; settings: HEK-293 ATXN2-luciferase reporter, luminescence, 24 h; series mostly up to 57 µM; activity change, negative = inhibition: at the top concentration; note: nearly all actives have a fitted effect of over 55% in size
% is set by controls: 0 for no effect and ±100 for the full control effect.

| SMILES | activity change, negative = inhibition |
| --- | --- |
| O=P1(Nc2ccc(Br)cn2)COc2ccccc2OC1 | inactive: -2.69% |
| Cc1ccc(OCC(=O)OC2CN3CCC2CC3)cc1 (stereo not drawn) | inactive: 10.2% |
| CC1CCC(C(C)C)C(OP(=O)(Nc2ccccn2)c2ccccc2)C1 (stereo not drawn) | inactive: -16.6% |
| Cc1nn(-c2ccccc2)c2c1P(=O)(N1CCOCC1)N(C)C(c1ccccc1)=N2 (stereo not drawn) | inactive: 3.57% |
| CCCC1OP(=O)(Nc2ccccc2)OCC1CC (stereo not drawn) | inactive: 0% |
| O=C(/C=C/c1ccccc1)OC1CN2CCC1CC2 (stereo not drawn) | inactive: 3.83% |
| CN(C)C1(CNC(=O)c2ccc(S(C)(=O)=O)cc2)CCCCC1 | inactive: -0.426% |
| CCOC(=O)Nc1cccc([As](=O)(O)O)c1 | inactive: 0.746% |
| O=P(Nc1ccccn1)(c1cccc2ccccc12)c1cccc2ccccc12 | inactive: 1.42% |
| CC1CCNP(=O)(N(CCCl)CCCl)O1 (stereo not drawn) | inactive: 1.45% |
| CCOC(=O)Nc1ccc([As](=O)(O)O)c(O)c1 | inactive: -3.96% |
| Cc1cc(SC(NC(=O)c2ccccc2)C(Cl)(Cl)Cl)nc(C(C)C)n1 (stereo not drawn) | inactive: 0.665% |
| CCCCOc1ccc(C(=O)NCC2(N3CCCCC3)CCCCC2)cc1OC | inactive: 5.67% |
| CCOC(=O)c1ccc(NC(=O)C(C)(CCl)SC)cc1 (stereo not drawn) | inactive: 28.4% |
| O=C(OC1CN2CCC1CC2)c1cccc([N+](=O)[O-])c1 (stereo not drawn) | inactive: -0.26% |
| COC(=O)C1(C)COP(=O)(N2CCCC2)OC1 (stereo not drawn) | inactive: 9.99% |
| COP1(=S)c2c(C)nn(CCC#N)c2N=C(c2ccc(F)cc2)N1C (stereo not drawn) | inactive: 4.41% |
| O=C(COc1ccccc1)OC1CN2CCC1CC2 (stereo not drawn) | inactive: 2.62% |
| COc1ccc(N/C(=N/P(=O)(N2CCOCC2)N2CCOCC2)N2CCOCC2)cc1 | inactive: -3.47% |
| O=[N+]([O-])c1cc(Oc2ccc([N+](=O)[O-])cc2C(F)(F)F)cc([N+](=O)[O-])c1 | inactive: -15.5% |
| Cc1cc(=O)[nH]c(N[N+](=O)[O-])n1 | inactive: 20.3% |
| O=C(OC1CN2CCC1CC2)C12CC3CC(CC(C3)C1)C2 (stereo not drawn) | inactive: -8.26% |
| COc1cc(I)ccc1[As](=O)(O)O | inactive: -0.342% |
| COc1ccc2nc(NP(=O)(c3ccccc3)c3ccccc3)sc2c1 | inactive: -10.5% |
| O=P1(N(CCCl)CCCl)Nc2ccccc2N1 | inactive: 47.6% |
| O=P1(N(CCCl)CCCl)OCCCN1CCCl (stereo not drawn) | inactive: -23.7% |

| SMILES | activity change, negative = inhibition |
| --- | --- |
| COC(=O)C1(C)COP(=O)(N2CCCCCC2)OC1 (stereo not drawn) | inactive: 9.88% |
| ClCCSc1nnc(-c2cccnc2)o1 | inactive: -16.8% |
| O=C(OC1CN2CCC1CC2)c1cccc2[nH]cnc12 (stereo not drawn) | inactive: -1.98% |
| CCN(CC)C(=S)SC(NC=O)C(Cl)(Cl)Cl (stereo not drawn) | inactive: 2.46% |
| CC(C)NC(=O)NP(=O)(Oc1ccccc1)Oc1ccccc1 | inactive: 2.92% |
| COc1cc(C(=O)NCC2(N3CCOCC3)CCCCC2)ccc1OCC(C)C | inactive: 1.81% |
| O=[N+]([O-])c1ccc(-c2cc([N+](=O)[O-])c(O)c([N+](=O)[O-])c2)cc1 | inactive: 4.77% |
| O=[As](O)(c1ccc(O)cc1)c1ccccc1O | inactive: -6.13% |
| Cc1ccc2nc3c(c(C)c2c1)CC(C(Cl)Cl)S3 (stereo not drawn) | inactive: -0.605% [at 11.3 µM] |
| [N-]=[N+]=NC1CCCCC1NC(=O)c1cc([N+](=O)[O-])cc([N+](=O)[O-])c1 (stereo not drawn) | inactive: -13% |
| CCN(N=Nc1nonc1N)c1nonc1N | inactive: 3.77% |
| CCCC1OP(N)(=O)OCC1CC (stereo not drawn) | inactive: 4.17% |
| O=C(O)c1ccccc1[As](=O)(O)O | inactive: 2.31% |
| CC(=O)Nc1ccc([As](=O)(O)O)cc1 | inactive: 3.88% |
| O=P(Nc1nc2ccc(Cl)cc2s1)(c1ccccc1)c1ccccc1 | inactive: -25.6% |
| Cc1ccc(NP(=O)(Oc2ccccc2F)Oc2ccccc2F)nc1 | inactive: -3.34% |
| CN(C(=O)Cc1ccc(Cl)c(Cl)c1)[C@H]1CCCC[C@@H]1N1CCCC1 | inactive: -11.6% |
| CCOP(=O)(Nc1ccccc1)OCC | inactive: 10.9% |
| Cc1cc(SC(NC(=O)c2ccc(F)cc2)C(Cl)(Cl)Cl)ncn1 (stereo not drawn) | inactive: 0% |
| CC(C)CC(=O)NC(Sc1ccc(Cl)cc1)C(Cl)(Cl)Cl (stereo not drawn) | inactive: 2.81% |
| Nc1cc(N)c2nonc2c1[N+](=O)[O-] | inactive: -15.7% |
| O=C(NC(Sc1ccncn1)C(Cl)(Cl)Cl)c1ccccc1 (stereo not drawn) | inactive: 0.29% |
| Oc1ccccc1CNc1ccccn1 | inactive: 12.7% |
| O=[N+]([O-])C1C(O)C(O)C([N+](=O)[O-])C(O)C1O (stereo not drawn) | inactive: 13.3% |
| Cc1ccc(N/C(=N/P(=O)(N2CCOCC2)N2CCOCC2)N2CCOCC2)cc1 | inactive: -26.6% |
| CN(C(=O)Cc1ccc(Cl)c(Cl)c1)[C@H]1CCCC[C@H]1N1CCCC1 | inactive: -16.4% |

| SMILES | activity change, negative = inhibition |
| --- | --- |
| Cc1ccc(OP(=O)(Nc2nccs2)Oc2ccc(C)cc2)cc1 | inactive: 5.19% |
| COc1ccccc1OP(=O)(Nc1ccc(C)cn1)Oc1ccccc1OC | inactive: 0.263% |
| CCNC(C)Cc1ccc2c(c1)OCO2 (stereo not drawn) | inactive: 10.1% [at 116 µM] |
| Clc1ccc(Cl)c(NC2=NCC(CBr)S2)c1 (stereo not drawn) | inactive: -5.49% [at 11.3 µM] |
| CN1CCCC(OC(=O)C(c2ccccc2)c2ccccc2)C1 (stereo not drawn) | inactive: -16.2% |
| Nc1ccc([As](=O)(O)c2ccc(N)cc2)cc1 | inactive: 7.9% |
| CCN(/C(=N/P(=O)(N1CCOCC1)N1CCOCC1)N1CCOCC1)c1ccc(OC)cc1 | inactive: -12.4% [at 11.3 µM] |
| CN(C)C(=O)OCCc1n(C)cc[n+]1C | inactive: 4.32% |
| CC(C)=N/N=C(\N)N[N+](=O)[O-] | inactive: -6.49% |
| CC1CCN(C(=O)Oc2c(Cl)cc(Cl)c3cccnc23)CC1 | inactive: 2.47% |
| COc1ccc(C2=NCC(CBr)S2)cc1 (stereo not drawn) | inactive: -2.35% |
| O=[N+]([O-])c1cccc2n[nH]nc12 | inactive: -3.17% |
| CC(=O)N1C2C3N(C(C)=O)C1C1N(C(C)=O)C(C(N1C(C)=O)N3C(C)=O)N2C(C)=O | inactive: -0.133% |
| O=[N+]([O-])c1cc([N+](=O)[O-])c(CCNc2ccccc2)c([N+](=O)[O-])c1 | inactive: -26.4% |
| Cc1ccc(NP(=O)(Oc2ccccc2)Oc2ccccc2)nc1 | inactive: 5.54% |
| COC(=O)C1(C)COP(=O)(Nc2ccccc2)OC1 (stereo not drawn) | inactive: 6.91% |
| O=P1(N(CCCl)CCCl)OCCCS1 (stereo not drawn) | inactive: -1.08% |
| O=[N+]([O-])c1ncn(CCn2cnc([N+](=O)[O-])n2)n1 | inactive: 2.46% |
| CC(=O)NC(SC(=S)N(C)C)C(Cl)(Cl)Cl (stereo not drawn) | inactive: -1.03% |
| O=[As](O)(c1ccccc1)c1ccc(O)cc1 | inactive: 9.85% |
| Nc1ccc([As](=O)(O)c2ccc([N+](=O)[O-])cc2)cc1 | inactive: 1.4% |
| C(Cc1nn[nH]n1)Cc1nn[nH]n1 | inactive: 8% |
| O=C(OC1CN2CCC1CC2)c1cccc(Cl)c1 (stereo not drawn) | inactive: -1.62% |
| Nc1ccc(CCCCOc2ccccc2)cc1 | inactive: 19.5% |
| COc1ccc(N)c([N+](=O)[O-])c1[N+](=O)[O-] | inactive: 0% |
| O=P(Nc1ccccn1)(c1ccc(Br)cc1)c1ccc(Br)cc1 | inactive: -25.5% |
